Values quoted from earlier work as cited in patent US20250186613A1 (The Trustees of the University of Pennsylvania, priority 2022, published 2025).

Target: T1, GLP-2 receptor (Homo sapiens, UniProt O95838)
T1 sequence (O95838 1-553): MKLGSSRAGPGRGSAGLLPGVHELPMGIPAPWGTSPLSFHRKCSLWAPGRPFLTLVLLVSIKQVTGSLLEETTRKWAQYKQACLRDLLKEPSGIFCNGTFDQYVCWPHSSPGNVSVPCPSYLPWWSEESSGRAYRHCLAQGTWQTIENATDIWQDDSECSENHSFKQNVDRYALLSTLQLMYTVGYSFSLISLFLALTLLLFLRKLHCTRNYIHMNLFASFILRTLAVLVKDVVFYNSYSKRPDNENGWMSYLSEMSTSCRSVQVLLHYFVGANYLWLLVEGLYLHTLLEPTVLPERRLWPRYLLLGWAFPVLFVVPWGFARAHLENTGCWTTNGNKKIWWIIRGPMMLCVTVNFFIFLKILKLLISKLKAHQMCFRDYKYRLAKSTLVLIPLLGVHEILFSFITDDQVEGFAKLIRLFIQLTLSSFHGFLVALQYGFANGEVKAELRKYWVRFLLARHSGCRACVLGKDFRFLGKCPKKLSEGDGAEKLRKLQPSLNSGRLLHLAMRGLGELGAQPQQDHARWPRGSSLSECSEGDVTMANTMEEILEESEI
Conditions: relative to GLP2; cited from earlier work

SMILES: CC[C@H](C)[C@H](NC(=O)[C@H](Cc1ccccc1)NC(=O)[C@H](CC(=O)O)NC(=O)[C@H](CCCNC(=N)N)NC(=O)[C@H](C)NC(=O)[C@H](C)NC(=O)[C@H](CC(C)C)NC(=O)[C@H](CC(N)=O)NC(=O)[C@H](CC(=O)O)NC(=O)[C@H](CC(C)C)NC(=O)[C@@H](NC(=O)[C@@H](NC(=O)[C@H](CC(N)=O)NC(=O)[C@H](CCSC)NC(=O)[C@H](CCC(=O)O)NC(=O)[C@H](CC(=O)O)NC(=O)[C@H](CO)NC(=O)[C@H](Cc1ccccc1)NC(=O)[C@H](CO)NC(=O)CNC(=O)[C@H](CC(=O)O)NC(=O)CNC(=O)[C@@H](N)Cc1c[nH]cn1)[C@@H](C)O)[C@@H](C)CC)C(=O)N[C@@H](CC(N)=O)C(=O)N[C@@H](Cc1c[nH]c2ccccc12)C(=O)N[C@@H](CC(C)C)C(=O)N[C@H](C(=O)N[C@@H](CCC(N)=O)C(=O)N[C@H](C(=O)N[C@@H](CCCCN)C(=O)N[C@H](C(=O)N[C@H](C(=O)N[C@@H](CC(=O)O)C(=O)O)[C@@H](C)O)[C@@H](C)CC)[C@@H](C)O)[C@@H](C)CC [Teduglutide]
- EC50 (/GLP2): 1 /GLP2
